Source: patent publication US20110263827A1 (AbbVie / Abbott, published 2011)
“And” between values parts separate entries of the source, which are not always exact repeats. Identical values can stand only once.

Sequences of proteins named here, by UniProt entry; tags and fusion partners are left off. A line that says so, or that is headed by a name, gives the form on record, which may keep a tag or linker.
UniProt P15692, other isoform, or with tags, fused parts or gaps limits assumed: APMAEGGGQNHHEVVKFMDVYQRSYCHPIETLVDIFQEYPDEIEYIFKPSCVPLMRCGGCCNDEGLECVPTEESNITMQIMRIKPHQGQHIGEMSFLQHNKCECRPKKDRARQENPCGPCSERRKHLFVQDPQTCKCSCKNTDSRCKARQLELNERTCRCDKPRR

Biological target: T1, VEGF (UniProt P15692-4 27-191, limits assumed, biotinylated)
T1 construct: ELISA antigen
Assay: direct bind ELISA, ref Ab

B1: AB070 (antibody, V domains shown)
VH: EVQLVESGGGLVQPGGSLRLSCAASGFTISDYWIHWVRQAPGKGLEWVAGITPAGGYTYYADSVKGRFTISADTSKNTAYLQMNSLRAEDTAVYYCARFVFFLPYAMDYWGQGTLVTVSS
VL: DIQMTQSPSSLSASVGDRVTITCRASQDVSTAVAWYQQKPGKAPKLLIYSASFLYSGVPSRFSGSGSGTDFTLTISSLQPEDFATYYCQQSYTTPPTFGQGTKVEIKR
notes: parent antibody
**Q.** With B1 as the binder, how does the EC50 read?
**A.** Its EC50 is 5.12 nM and 5.91 nM.
